Measured values: ChEMBL document CHEMBL4342416, “Indole: A privileged scaffold for the design of anti-cancer agents” (Eur J Med Chem, 2019)

Test: Inhibition of bovine brain microtubule polymerization incubated for 60 mins by spectrophotometric method
Design: species or system Bos taurus

Ki: 0.178 µM
Compound: CC[C@]1(O)C[C@@H]2CN(CCc3c([nH]c4ccccc34)[C@@](C(=O)OC)(c3cc4c(cc3OC)N(C)[C@H]3[C@@](O)(C(=O)OC)[C@H](OC(C)=O)[C@]5(CC)C=CCN6CC[C@]43[C@@H]65)C2)C1 [VINBLASTINE]
